According to patent publication US20220187281A1, “METHODS AND SYSTEMS FOR EVALUATION OF CELL SAMPLES” (priority 2019, published 2022):
Where two headings read alike, the source gives them in different places.

Test system: MMTV-PyMT mouse breast tumor

Compound: O=P1(N(CCCl)CCCl)NCCCO1 (centres unmarked) [CPP, cyclophosphamide]
- sensitivity by viability assay readings: insensitive

Compound: COc1cccc2c1C(=O)c1c(O)c3c(c(O)c1C2=O)C[C@@](O)(C(=O)CO)C[C@@H]3O[C@H]1C[C@H](N)[C@H](O)[C@H](C)O1 [Doxorubicin]
- sensitivity by viability assay readings (day 12 compared to day 0, CPP 20 μM, DOX 100 nM, TAXOL 1 nM): sensitive
